Measurements from patent publication US4021546A (priority 1976, dated 1977).

## DIGOXIN MONO-(N,N-DIMETHYL)-GLYCINATE [Example I]
0.01 N HCl
  solubility: 12.6 mg/mL
pH of 3, citrate buffer
  solubility: 12.2 mg/mL

Like-named read-outs stand apart in the source and are kept apart here.
